Experimental findings from PubChem BioAssay (NCATS) are described below.

The chains behind the UniProt entries cited, without tags or fusion partners.
UniProt Q9R1A7, whole entry: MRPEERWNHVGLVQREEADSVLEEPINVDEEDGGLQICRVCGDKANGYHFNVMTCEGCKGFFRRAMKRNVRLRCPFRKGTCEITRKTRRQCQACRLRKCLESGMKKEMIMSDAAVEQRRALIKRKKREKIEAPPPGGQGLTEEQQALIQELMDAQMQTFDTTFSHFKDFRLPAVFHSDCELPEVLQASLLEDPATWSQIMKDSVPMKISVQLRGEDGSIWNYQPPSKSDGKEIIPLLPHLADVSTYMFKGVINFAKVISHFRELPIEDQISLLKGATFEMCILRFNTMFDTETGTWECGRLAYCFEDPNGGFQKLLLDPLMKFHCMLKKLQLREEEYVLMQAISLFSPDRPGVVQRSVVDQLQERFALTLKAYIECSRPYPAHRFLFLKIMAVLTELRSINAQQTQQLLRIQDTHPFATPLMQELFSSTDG

For one experiment, the system named is Tov-21-G. The experiment can be described thus: Primary qHTS to identify gynecologic anti-cancer compounds using libraries of approved drugs and bioactive compounds (AID 1345084; active means well fitted cell-killing curve with a large enough effect; further: on the % scale 0 is the no-effect control and ±100 the full control effect; nearly all actives have a fitted effect of over 55% in size). The settings on record: Gynecologic cancer cell panel viability, ATPlite luminescence, 48 h; at 57.5 µM (top of the series). The method in brief:
(§1)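 Five-concentration response, 48 h; readout is ATP-driven luciferase luminescence.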

In a further experiment the test system is Tov112D. The experiment is described as above. To be noted: Gynecologic cancer cell panel viability, ATPlite luminescence, 48 h; at 57.5 µM (top of the series). The method in brief:
as §1

The target of experiment [1] is Nuclear receptor subfamily 1 group I member 2 (Rattus norvegicus) (UniProt Q9R1A7). Kind of experiment: qHTS assay for small molecule activators of the rat pregnane X receptor (rPXR) signaling pathway (AID 651751). Further: 0% is about no effect. To be noted: rPXR reporter cells, luciferase (One-Glo), 24 h.
The nature of experiment [2]: qHTS assay for small molecule activators of the human pregnane X receptor (PXR) signaling pathway (AID 720659). Further: 0% is about no effect. The settings on record: DPX-2 HepG2 CYP3A4-luciferase, 24 h; at 92.3 µM (top of the series).

The structures appear in SMILES notation. Where “and” joins values, the source holds several entries; their conditions need not be identical. Equal values may be shown once. This is a selection; strong and weak results do not stand in their true shares. Inconclusive results are not listed. Calls of active or inactive are those of the source. Unless noted, how the calls were made is not given here.

Regarding `CCC(=O)N(c1ccccc1)C1CCNCC1`, the activity change, negative = cytotoxicity in the experiment with Tov-21-G is inactive: 4.98%; with Tov112D, inactive: -1.11%. As for `CCOC(=O)N1CCC(=O)CC1`, the activity change, negative = cytotoxicity in the experiment on Tov-21-G is inactive: 16.3%; with Tov112D it was inactive: 5.68%. For `CC(=O)N1CCc2ccc(N(C(=O)/C=C/c3cccc(C#N)c3)C3CCN(CCC4CCCC4)CC3)cc21`, the activity change, negative = cytotoxicity in the experiment on Tov-21-G is inactive: 1.79%; in the experiment with Tov112D it was inactive: 16.8%. As to `ClCCOP(OCCCl)OCCCl`, the max response in experiment [1] was inactive: 0.193%. Also, the activation in experiment [2] is inactive: -16%.

Turning to `O=[N+]([O-])c1ccccc1[N+](=O)[O-]`, the max response in experiment [1] is inactive: -0.539%. On to `CCOP(=O)(Cl)Cl`, for which the max response in experiment [1] is inactive: 8.1% and inactive: 2.92%. The activation in experiment [2] was inactive: -2.92% and inactive: 24.4%.
